Earlier results as cited in US20190015335A1, “HEPATOPROTECTIVE PARTICLES AND SYSTEMS AND METHODS OF USE THEREOF” (South Dakota Board of Regents, priority 2017, published 2019).

Biological target: T1, FXR (farnesoid X receptor) of hepatocytes (Homo sapiens, UniProt Q96RI1)
T1 construct: host or cells: human hepatocytes
T1 sequence (Q96RI1 1-486): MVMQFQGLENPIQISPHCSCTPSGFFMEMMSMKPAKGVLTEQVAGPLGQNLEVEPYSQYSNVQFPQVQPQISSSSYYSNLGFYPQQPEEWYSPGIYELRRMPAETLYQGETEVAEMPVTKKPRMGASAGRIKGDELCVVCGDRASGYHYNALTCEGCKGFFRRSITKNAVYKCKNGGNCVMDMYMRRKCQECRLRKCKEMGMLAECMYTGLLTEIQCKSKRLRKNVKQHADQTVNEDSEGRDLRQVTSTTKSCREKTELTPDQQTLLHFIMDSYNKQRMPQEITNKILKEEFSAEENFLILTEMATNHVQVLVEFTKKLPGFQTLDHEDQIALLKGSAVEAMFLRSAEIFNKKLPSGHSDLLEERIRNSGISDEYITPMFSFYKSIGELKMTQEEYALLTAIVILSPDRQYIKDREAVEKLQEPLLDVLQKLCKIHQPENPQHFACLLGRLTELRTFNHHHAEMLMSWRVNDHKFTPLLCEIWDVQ
Conditions: activation of FXR; cited from earlier work

Structure (SMILES): CC(C)c1onc(-c2c(Cl)cccc2Cl)c1COc1ccc(/C=C/c2cccc(C(=O)O)c2)c(Cl)c1 [GW4064]
- protection of human hepatocytes against chemotherapeutics-induced toxicity: increases the protection of human hepatocytes against chemotherapeutics-induced toxicity
